Literature values as cited in publication PMC10641818, “Development of First-in-Class Dual Sirt2/HDAC6 Inhibitors as Molecular Tools for Dual Inhibition of Tubulin Deacetylation” (Journal of Medicinal Chemistry, 2023).

Chains of the proteins cited; added tags and fusions are not shown.
UniProt Q8IXJ6, whole entry: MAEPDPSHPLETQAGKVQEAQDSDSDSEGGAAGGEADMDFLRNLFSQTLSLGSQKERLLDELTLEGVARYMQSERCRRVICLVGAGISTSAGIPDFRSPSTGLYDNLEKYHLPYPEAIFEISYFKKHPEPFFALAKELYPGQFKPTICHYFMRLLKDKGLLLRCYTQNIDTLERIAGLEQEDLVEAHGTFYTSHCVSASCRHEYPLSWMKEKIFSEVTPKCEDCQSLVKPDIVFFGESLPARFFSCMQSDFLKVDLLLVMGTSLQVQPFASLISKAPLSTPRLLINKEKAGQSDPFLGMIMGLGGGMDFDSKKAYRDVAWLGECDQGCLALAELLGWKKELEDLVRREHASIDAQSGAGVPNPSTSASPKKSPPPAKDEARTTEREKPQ

Target: Sirt2 (Homo sapiens, UniProt Q8IXJ6)
Settings: read-out: Kd of fluorescent Sirt2 tracer; cited from earlier work

Cc1cc(C)nc(SCC(=O)Nc2ncc(Cc3cccc(OCc4cn(CCCNC(=O)c5ccc6c(c5)C(=O)OC65c6ccc(N(C)C)cc6Oc6cc(N(C)C)ccc65)nn4)c3)s2)n1
Kd: 250 nM
